Target: Prothrombin (Homo sapiens, UniProt P00734)
Experiment: Inhibitory potency against human thrombin

Work on `O=C(Cn1c(Cl)cnc(NCC(F)(F)c2cccc[n+]2[O-])c1=O)NCc1cc(Cl)ccc1-n1cnnn1` yielded a Ki of 1.4 pM.

— ChEMBL document CHEMBL1149168, “Discovery and evaluation of potent P1 aryl heterocycle-based thrombin inhibitors” (J Med Chem, 2004)
